{"sequences": {"note": "Chains of the proteins cited; added tags and fusions are not shown.", "UniProt P23944, whole entry": "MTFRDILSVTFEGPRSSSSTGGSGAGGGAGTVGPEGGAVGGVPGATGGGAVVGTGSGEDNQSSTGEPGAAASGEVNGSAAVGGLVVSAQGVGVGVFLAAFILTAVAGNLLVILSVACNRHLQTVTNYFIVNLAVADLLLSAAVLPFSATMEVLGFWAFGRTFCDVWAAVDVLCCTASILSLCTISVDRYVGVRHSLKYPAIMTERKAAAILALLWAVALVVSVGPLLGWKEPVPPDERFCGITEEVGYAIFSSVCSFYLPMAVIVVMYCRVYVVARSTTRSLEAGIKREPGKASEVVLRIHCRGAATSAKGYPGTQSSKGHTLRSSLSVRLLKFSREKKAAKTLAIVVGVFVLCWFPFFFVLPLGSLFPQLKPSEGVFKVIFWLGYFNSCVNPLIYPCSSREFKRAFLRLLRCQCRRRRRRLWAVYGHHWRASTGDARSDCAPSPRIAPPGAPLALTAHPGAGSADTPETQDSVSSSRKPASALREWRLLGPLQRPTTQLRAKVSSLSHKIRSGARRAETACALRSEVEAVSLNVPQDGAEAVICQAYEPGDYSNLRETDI"}, "source": "ChEMBL document CHEMBL1135819", "about": "“N-[3-(1H-imidazol-4-ylmethyl)phenyl]ethanesulfonamide (ABT-866, 1),(1) a novel alpha(1)-adrenoceptor ligand with an enhanced in vitro and in vivo profile relative to phenylpropanolamine and midodrine” (J Med Chem, 2002)", "biological_target": "Alpha-1D adrenergic receptor (Rattus norvegicus) (UniProt P23944)", "conditions": "Aorta; 10 uM", "note": "Activity calls are given as the source filed them. The calls are words filed in the database; no cut-off is given here."}
{"smiles": "CCS(=O)(=O)Nc1cccc(Cc2c[nH]cn2)c1", "values": [{"measurement": "NA", "value": "inactive"}]}
